## AlphaSeq binding of Ab-14 heavy chain variants to a spike HR2 peptide

The measurements come from Li et al. 2023 (doi:10.1038/s41467-023-39022-2) through the FLAb antibody collection.

All variants were tested on one target, the spike HR2 peptide PDVDLGDISGINAS (SARS-CoV-2).

Ab-14 is the parent antibody, in scFv form: VH, then a (GGGGS)3 linker, then VL. The light chain is unchanged in all variants.
VH: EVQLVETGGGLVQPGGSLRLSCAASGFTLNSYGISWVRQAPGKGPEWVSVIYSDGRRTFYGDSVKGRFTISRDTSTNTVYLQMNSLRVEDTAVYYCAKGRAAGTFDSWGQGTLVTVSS
VL: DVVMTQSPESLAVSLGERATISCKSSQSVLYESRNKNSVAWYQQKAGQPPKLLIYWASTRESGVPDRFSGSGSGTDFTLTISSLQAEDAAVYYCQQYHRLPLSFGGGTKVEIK

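The starting antibody came from a phage panning campaign against this peptide. This is the validation round: designs drawn from the data on random variants, tested in the same kind of assay. Group labels follow the data file (Ctrl: baseline library sampled from a position-specific scoring matrix, with some repeated check sequences; Rand: our label for a block that the file lists under HC and that is probably the random mutants of the ten best first-round binders; En: ensemble of fine-tuned language models; GP: Gaussian process model; GPLM: also part of the Gaussian process libraries; HC: hill climbing; Gen: genetic algorithm; Gibbs: Gibbs sampling; a sequence that several methods proposed may carry one label only). In AlphaSeq, yeast of one mating type display the scFv and yeast of the other type display the target. After mating in shaken culture at 30 °C for 16 h, diploids were selected and their barcode pairs sequenced. The ratio of observed to expected reads was calibrated, replicate by replicate, on BCL2-family standards whose Kd was known from biolayer interferometry. The assay was run in six technical replicates.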

Positions count from residue 1 of the parent VH; G26K puts K in place of G. This list holds designs with at most six substitutions. Values are apparent Kd, the geometric mean of the replicates that gave a signal; lower means stronger binding. "nd" marks a missing value. The strain was present, yet no cells mated with the target were sequenced in any replicate, which points to weak or no binding. Values of this round are not directly comparable with the first-round values of the same sequences. In the paper, a design with two or fewer of six values counts as a poor binder. The parent sequence was in this pool as ten entries: three were never detected, three once, and four in most replicates, with averages from 2.2 nM to 240 nM. Background: pairings of all heavy chain designs with three empty control strains gave a value in 1% of cases (median 120 nM, 5th percentile 7.0 nM). Values in that range, when seen in few replicates, are hard to tell from nonspecific mating. For each scFv, signals with the empty controls are counted beside the result.

changes,group,apparent Kd,seen in,signal with controls
G26K+T28S+S31E+A101T+S107K,GPLM_Gibbs,82 nM,3 of 6,1 of 18
L29V+F59S+G61A+G103V+S107Q,Ctrl,nd,0 of 6,0 of 18
T28D+R56Q+R100K,GP_Gen,2.3 nM,6 of 6,0 of 18
G61Q+R100Q+A101E,GPLM_HC,4.5 nM,6 of 6,0 of 18
T28Q+S53A+R100K,GPLM_Gen,2.6 nM,6 of 6,0 of 18
T28E+N30E+G61A+S63D,GP_Gibbs,5.7 nM,6 of 6,0 of 18
R56E+S107Y,Ctrl,3.4 nM,1 of 6,0 of 18
N30D+R57V+F105A+D106L+S107Y,Rand,nd,0 of 6,0 of 18
R56K+A101Q+S107T,GP_Gen,20 nM,5 of 6,0 of 18
T28D+G61D+R100Q+A101N,GPLM_HC,1.4 nM,6 of 6,0 of 18
T28Q+S31D+G61Q+S63H+R100K,GP_HC,28 nM,5 of 6,0 of 18
F27E+T28S+S31E+A101T,GP_Gen,42 nM,6 of 6,0 of 18
N30D+G61D+A101E,GP_HC,1.1 nM,5 of 6,0 of 18
T28S+S63M+R100E,GPLM_Gen,4.8 nM,6 of 6,1 of 18
A101I+D106N,Ctrl,nd,0 of 6,0 of 18
T28D+G61I+R100K+S107T,GP_Gen,59 nM,5 of 6,0 of 18
S31E+G103V+S107A,GPLM_HC,nd,0 of 6,0 of 18
T28D+G61A+R100L+A101T,GP_Gibbs,710 pM,6 of 6,0 of 18
T28D+S31E+S53A+G61A+R100Q+A101T,En_HC,290 pM,6 of 6,0 of 18
T28D+S31E+S53A+G61I+R100E+A101T,En_HC,220 pM,6 of 6,1 of 18
G26H+T28S+G61A+A101T,GPLM_Gen,3.3 nM,6 of 6,0 of 18
F27M+T28D+A101T,GPLM_Gen,3.8 nM,6 of 6,0 of 18
A101D+G103L+D106V,Ctrl,170 nM,6 of 6,0 of 18
T28S+R56K+G61I,GPLM_Gibbs,920 pM,1 of 6,0 of 18
Y32H+G61A,Ctrl,nd,0 of 6,0 of 18
G26H+N30E+S53A,GP_HC,31 nM,5 of 6,0 of 18
T28D+F59A+S107V,GP_Gibbs,2.4 nM,6 of 6,0 of 18
F59S+T104E,Ctrl,nd,0 of 6,0 of 18
T28E+S31E+R100N+S107T,GP_Gen,4.6 nM,6 of 6,1 of 18
T28E+R100Q+S107V,GP_Gen,1.9 nM,6 of 6,0 of 18
L29Y+N30D+A101G+A102P+F105A+D106L,Rand,nd,0 of 6,0 of 18
S31D+A101T+D106I,GPLM_HC,140 nM,1 of 6,0 of 18
A101H+T104D,Ctrl,nd,0 of 6,0 of 18
A101C+G103V+T104Q,Ctrl,nd,0 of 6,0 of 18
T28H+G61S+R100K+A101Q,GP_Gen,17 nM,1 of 6,0 of 18
G26K+G61S+R100E,GPLM_Gen,41 nM,6 of 6,0 of 18
T28E+S31E+F59M+A101T,GP_Gen,580 pM,6 of 6,0 of 18
T28S+G61V+R100S+A101T+S107F,GPLM_Gibbs,11 nM,6 of 6,0 of 18
G26H+T28N+A101Q,GP_Gen,310 nM,5 of 6,0 of 18
T28S+G61H+R100Q+A101T,GPLM_Gen,4.6 nM,6 of 6,0 of 18
T28C+S31E+S53A,Ctrl,6.2 nM,6 of 6,0 of 18
S31E+V64T+D106S,Ctrl,nd,0 of 6,0 of 18
S31D+G61H+S107Q,Ctrl,15 nM,6 of 6,0 of 18
S53A+A101Q+D106K+S107I,GP_HC,nd,0 of 6,0 of 18
T28N+S63E+A101T,GP_Gen,nd,0 of 6,0 of 18
S63E+R100Q+A101L,Ctrl,35 nM,4 of 6,0 of 18
T28D+L29Y+F59H+T104W+D106N,Rand,nd,0 of 6,0 of 18
S31D+R100K+S107L,GPLM_HC,1.2 nM,6 of 6,0 of 18
T28Q+R100K+A101T+S107T,GP_Gibbs,3.8 nM,6 of 6,0 of 18
G26K+G61A+A101T,GPLM_Gen,1.9 nM,6 of 6,0 of 18
T28D+S63E+A101Q,GP_Gen,920 pM,5 of 6,0 of 18
T28Q+S31E+R56W+A101T,GP_Gen,11 nM,6 of 6,1 of 18
T28E+G61Q+R100Q+A101T+S107K,GP_Gibbs,3.7 nM,6 of 6,0 of 18
A101S+F105W,Ctrl,24 nM,1 of 6,0 of 18
T28Q+S31E+A101Q+D106I,GP_Gen,nd,0 of 6,0 of 18
S31E+R100K+A101N,GPLM_Gen,1.4 nM,6 of 6,0 of 18
T28S+S31E+F59M+G61S,GP_HC,1.6 nM,6 of 6,1 of 18

Excerpt, the first 6 entries:

changes,group,apparent Kd,seen in,signal with controls
G26K+T28S+S31E+A101T+S107K,GPLM_Gibbs,82 nM,3 of 6,1 of 18
L29V+F59S+G61A+G103V+S107Q,Ctrl,nd,0 of 6,0 of 18
T28D+R56Q+R100K,GP_Gen,2.3 nM,6 of 6,0 of 18
G61Q+R100Q+A101E,GPLM_HC,4.5 nM,6 of 6,0 of 18
T28Q+S53A+R100K,GPLM_Gen,2.6 nM,6 of 6,0 of 18
T28E+N30E+G61A+S63D,GP_Gibbs,5.7 nM,6 of 6,0 of 18